Source: ChEMBL document CHEMBL1201862, “PubChem BioAssay data set” (2004)
This is one part of the list. Cut-off read from the data, not from the text of the source: active = GI50 up to about 1.1 µM and inactive = higher. These assays gave more results; the selection is not random.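 Each compound was tested at five concentrations against cells in 96-well plates for 48 hours. The concentration for 50% growth inhibition is given as GI50.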 For some of these results: Measured potencies and affinities stand elsewhere.

What follows are compounds tested on RPMI-8226 (assay: NCI tumour cell line growth inhibition, 48 h).

Structure (SMILES)	GI50
CCN(CCO)CCO.Oc1c(Cl)c(Cl)c(Cl)c(Cl)c1Cl	inactive: 29.4 µM
N1=C(c2nnn[nH]2)NNC(c2nnn[nH]2)=N1	inactive: > 100 µM
CC1=C[C@H]2O[C@@H]3[C@H](O)[C@@H](O)[C@](C)([C@@]2(O)CC1)[C@]31CO1	active: 0.239 µM
CC(=O)OC1(C)CC(=O)OCC23CCC(C)=CC2OC2CC(OC(=O)/C=C\C=C\C(C(C)O)OCC1O)C3(C)C21CO1 (configuration not stated)	active: 0.0597 µM

What follows are compounds tested on SF-268 (assay: NCI tumour cell line growth inhibition, 48 h).

Structure (SMILES)	GI50
CCN(CCO)CCO.Oc1c(Cl)c(Cl)c(Cl)c(Cl)c1Cl	inactive: 29.8 µM
N1=C(c2nnn[nH]2)NNC(c2nnn[nH]2)=N1	inactive: > 100 µM
CC1=C[C@H]2O[C@@H]3[C@H](O)[C@@H](O)[C@](C)([C@@]2(O)CC1)[C@]31CO1	active: 0.279 µM
